{"source": "PubChem BioAssay AID1553", "about": "(Sanford-Burnham Center for Chemical Genomics, 2009)", "tested_on": "HeLa cells, 3H-mannose incorporation into glycoproteins", "assay": "3H-mannose glycoprotein labeling increase in HeLa – HeLa cells, orthogonal assay for PMI inhibitor project, late-stage follow-up (AID 1553);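 further: 1 fold = DMSO treated HeLa control cells; higher fold signals phosphomannose isomerase inhibition routing mannose into glycosylation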", "note": "Calls of active or inactive are those of the source.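 How the source made its calls: active means compounds graded as giving a low, moderate or strong rise in tritium labelling of cell protein versus solvent control; inactive means the rest.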"}
{"smiles": "O=P(Nc1nccs1)(c1ccccc1)c1nc2ccccc2s1", "note": "(configuration not stated)", "values": [{"measurement": "fold increase 3H incorporation", "setting": "at 100 µM", "value": "inactive: 0.7"}, {"measurement": "fold increase 3H incorporation", "setting": "fold increase, at 25 µM, stronger effect = higher value", "value": 0.7}]}
